{"sequences": {"note": "The chains behind the UniProt entries cited, without tags or fusion partners.", "UniProt P08172, whole entry": "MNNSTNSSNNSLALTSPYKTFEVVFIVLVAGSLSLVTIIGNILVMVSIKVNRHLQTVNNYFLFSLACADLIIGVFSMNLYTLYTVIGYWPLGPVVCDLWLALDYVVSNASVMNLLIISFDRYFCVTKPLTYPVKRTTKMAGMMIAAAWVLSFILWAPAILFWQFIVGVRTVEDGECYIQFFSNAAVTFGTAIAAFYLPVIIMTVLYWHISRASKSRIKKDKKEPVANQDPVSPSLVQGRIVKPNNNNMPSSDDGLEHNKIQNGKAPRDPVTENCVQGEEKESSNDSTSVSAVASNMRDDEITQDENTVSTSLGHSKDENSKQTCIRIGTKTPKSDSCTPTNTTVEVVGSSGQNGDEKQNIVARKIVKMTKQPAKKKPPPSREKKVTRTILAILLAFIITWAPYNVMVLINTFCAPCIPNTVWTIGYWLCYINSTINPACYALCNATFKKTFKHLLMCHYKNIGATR"}, "source": "ChEMBL document CHEMBL1143946", "about": "“Docking analyses on human muscarinic receptors: unveiling the subtypes peculiarities in agonists binding” (Bioorg Med Chem, 2008)", "target": "Muscarinic acetylcholine receptor M2 (Homo sapiens, UniProt P08172)", "experiment": "biochemical", "data": [{"smiles": "CCCCCCOc1nsnc1C1=CCCN(C)C1", "note": "[XANOMELINE]", "values": [{"measurement": "Ki", "result": 11.7, "unit": "nM"}]}]}
